Test: Appearance and solubility of surfactants and of 1:1 molar blends with cationic surfactant
Format: physicochemical
Conditions: cationic surfactant alone, ambient temperature
Protocol: The surfactant blends tested are prepared at a 1:1 molar ratio without any pH adjustment. Dilutions are made using deionized water to the desired actives level. Actives amounts are wt. % unless indicated otherwise. Appearances are reported at ambient temperature for samples prepared within the last 24 h.

For `CCCCCCCCCCCCCCCC[N+](C)(C)C.[Cl-]` [Ammonyx ® Cetac 30 (cetrimonium CI), cetrimonium CI], the “Appearance, 0.1%” value (0.1% actives) was “clear liquid” and the “Appearance, 1.0%” value (1.0% actives) was “clear liquid”.
